Results published in patent publication US20260306514A1, “ORAL PHARMACEUTICAL FORMULATIONS CONTAINING 4-((2-HYDROXY-3-METHOXYBENZYL)AMINO) BENZENESULFONAMIDE DERIVATIVES” (Cadrenal Therapeutics, Inc., priority 2022, published 2026).

Experiment: Rat PK of Compound 1, IV and oral solution (Table 2)
Set-up: species or system rats
Conditions: in vivo, 30 mg/Kg
Text: These compounds have low solubility in water. Below is a comparison of oral bioavailability of Compound 1 Suspension (Table 1) versus Solution (Table 2).
The intravenous formulation uses cyclodextrin (CD) to increase solubility. However, a drug loading of <10% is not suitable for oral formulation. The inventors explored a new approach to oral formulation without guidance from the art including lipid solubility screening in various non-aqueous vehicles, self micro-emulsifying systems with oils, surfactants, and co-surfactants, amorphous solid dispersions via hot melt and spray drying, micronization, and in silico screen of supercritical fluid nanoparticle engineering. […] The pharmaceutical acceptable carrier can be a polymer.

- Tmax: 15 min
Compound: COc1cccc(CNc2ccc(S(=O)(=O)Nc3nc4ccccc4s3)cc2)c1O [Compound 1, N-(benzo[d]thiazol-2-yl)-4-((2-hydroxy-3-methoxybenzyl)amino)benzenesulfonamide]
